These are literature values, as cited in article PMC6716341 (ACS Central Science, 2019).

By UniProt entry, the sequences of proteins in these tests, tags left out. Where a name states a change or a piece, a line headed by the entry shows the natural chain unless it says otherwise.
UniProt P05067: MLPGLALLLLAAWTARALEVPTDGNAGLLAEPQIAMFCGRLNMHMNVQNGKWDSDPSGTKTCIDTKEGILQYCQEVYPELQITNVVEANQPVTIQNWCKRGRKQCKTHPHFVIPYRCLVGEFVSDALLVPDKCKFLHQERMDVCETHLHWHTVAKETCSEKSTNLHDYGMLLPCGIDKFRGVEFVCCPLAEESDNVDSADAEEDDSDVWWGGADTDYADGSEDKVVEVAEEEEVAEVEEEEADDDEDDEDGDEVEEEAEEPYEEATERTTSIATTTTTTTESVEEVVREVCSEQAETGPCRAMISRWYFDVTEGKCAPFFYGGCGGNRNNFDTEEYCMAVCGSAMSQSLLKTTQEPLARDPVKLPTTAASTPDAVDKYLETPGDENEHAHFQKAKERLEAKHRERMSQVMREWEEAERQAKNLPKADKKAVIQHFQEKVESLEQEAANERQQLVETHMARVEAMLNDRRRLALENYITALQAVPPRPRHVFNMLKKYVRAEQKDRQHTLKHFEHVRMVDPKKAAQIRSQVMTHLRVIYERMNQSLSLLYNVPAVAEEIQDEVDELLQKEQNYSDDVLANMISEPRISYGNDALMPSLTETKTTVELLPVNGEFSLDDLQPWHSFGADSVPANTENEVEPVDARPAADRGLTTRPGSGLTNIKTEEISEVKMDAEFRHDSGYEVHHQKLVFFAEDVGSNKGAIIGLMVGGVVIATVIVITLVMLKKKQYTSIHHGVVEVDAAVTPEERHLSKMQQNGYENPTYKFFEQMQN

The data set relates to 5XFAD transgenic mice. The following applies: injection; cited from earlier work.

With “canonical Aβ1–16: canonical Aβ1–16 (literature) (DAEFRHDSGYEVHHQK; Amyloid-beta protein 42; UniProt P05067 672-687, looked up, fragment)”, the amyloid plaque accumulation entry is “does not”.
With “isomerized Aβ1–16: isomerized Aβ1–16, injected in 5XFAD mice (literature) (DAEFRHDSGYEVHHQK; Amyloid-beta protein 42 isomerized; UniProt P05067 672-687, looked up, fragment)”, the amyloid plaque accumulation entry is reported as “significantly increased amyloid plaque accumulation”.
